This experiment deals with MMP-2 (Homo sapiens, UniProt P08253). Nature of the experiment: MMP inhibition fluorometric assay, MMP-2. The note with it: read-out: IC50 (μM ± SD), enzymatic inhibition of MMP-2; catalytic domain of MMP-2; ZBG library; value ± SD.

Amino acid sequences for entries named in this document (tags omitted). Residues count along the entry.
UniProt P08253, 110-660 limits assumed: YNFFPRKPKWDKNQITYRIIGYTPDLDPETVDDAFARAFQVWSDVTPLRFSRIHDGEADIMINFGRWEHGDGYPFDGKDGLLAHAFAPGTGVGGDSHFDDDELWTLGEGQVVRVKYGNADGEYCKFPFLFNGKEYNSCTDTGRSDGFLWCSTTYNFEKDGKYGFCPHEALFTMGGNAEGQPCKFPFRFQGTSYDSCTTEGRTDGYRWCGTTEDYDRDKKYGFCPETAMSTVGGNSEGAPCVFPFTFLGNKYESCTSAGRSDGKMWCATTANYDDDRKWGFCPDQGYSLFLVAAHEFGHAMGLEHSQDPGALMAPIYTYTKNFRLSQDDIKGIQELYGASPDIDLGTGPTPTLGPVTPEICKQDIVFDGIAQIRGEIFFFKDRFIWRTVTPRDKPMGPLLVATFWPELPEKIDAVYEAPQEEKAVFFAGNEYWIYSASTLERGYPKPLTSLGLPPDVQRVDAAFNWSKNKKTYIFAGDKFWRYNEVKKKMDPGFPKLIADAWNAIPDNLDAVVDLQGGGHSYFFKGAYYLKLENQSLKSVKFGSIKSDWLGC

As for `[N-]=[N+]=NCC(N)CO` (centres unmarked), the IC50 (usually the midpoint of a concentration-inhibition curve) worked out at 520 µM.

Turning to `[N-]=[N+]=NCC(N)CN=[N+]=[N-]` (centres unmarked), the half-inhibitory concentration (IC50) was greater than 1000 µM.

Values taken from publication PMC3608355, “Amino Acid Derivatives as New Zinc Binding Groups for the Design of Selective Matrix Metalloproteinase Inhibitors” (Journal of Amino Acids, 2013).
